# Reference: ChEMBL document CHEMBL1137222, “Architecture of P2Y nucleotide receptors: structural comparison based on sequence analysis, mutagenesis, and homology modeling” (J Med Chem, 2004)
# Chains of the proteins cited; added tags and fusions are not shown.
# UniProt P47900, whole entry R285A: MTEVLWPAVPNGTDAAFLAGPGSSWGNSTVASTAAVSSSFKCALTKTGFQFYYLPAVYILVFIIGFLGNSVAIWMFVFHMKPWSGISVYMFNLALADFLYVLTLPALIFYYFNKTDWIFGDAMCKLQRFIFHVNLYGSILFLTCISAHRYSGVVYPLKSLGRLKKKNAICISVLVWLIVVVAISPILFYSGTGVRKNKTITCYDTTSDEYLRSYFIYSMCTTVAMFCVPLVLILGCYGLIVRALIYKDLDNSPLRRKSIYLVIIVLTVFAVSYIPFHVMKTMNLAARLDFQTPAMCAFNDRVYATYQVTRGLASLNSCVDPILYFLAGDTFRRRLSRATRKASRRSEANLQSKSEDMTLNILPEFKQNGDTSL
# UniProt P47900, whole entry C296A: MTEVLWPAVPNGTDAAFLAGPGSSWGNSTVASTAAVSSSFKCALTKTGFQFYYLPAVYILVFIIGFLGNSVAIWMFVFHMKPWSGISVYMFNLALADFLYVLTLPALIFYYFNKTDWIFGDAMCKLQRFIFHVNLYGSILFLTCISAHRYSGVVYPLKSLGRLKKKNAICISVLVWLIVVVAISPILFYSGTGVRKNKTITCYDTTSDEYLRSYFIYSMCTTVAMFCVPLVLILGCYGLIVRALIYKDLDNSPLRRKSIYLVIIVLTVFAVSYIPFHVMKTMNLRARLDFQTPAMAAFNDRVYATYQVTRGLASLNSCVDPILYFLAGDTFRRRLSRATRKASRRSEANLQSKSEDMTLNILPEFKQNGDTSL
# UniProt P47900, whole entry T222A: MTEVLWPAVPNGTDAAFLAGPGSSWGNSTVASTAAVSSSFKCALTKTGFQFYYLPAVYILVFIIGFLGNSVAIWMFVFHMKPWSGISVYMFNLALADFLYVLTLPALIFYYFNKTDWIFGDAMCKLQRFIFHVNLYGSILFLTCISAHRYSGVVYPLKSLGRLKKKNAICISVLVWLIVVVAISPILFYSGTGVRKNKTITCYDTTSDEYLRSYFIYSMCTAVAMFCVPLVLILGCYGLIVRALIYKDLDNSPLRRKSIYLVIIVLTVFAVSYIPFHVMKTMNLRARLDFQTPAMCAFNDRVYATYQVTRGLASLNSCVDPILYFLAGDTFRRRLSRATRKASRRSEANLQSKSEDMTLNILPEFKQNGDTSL
# UniProt P47900, whole entry E209D: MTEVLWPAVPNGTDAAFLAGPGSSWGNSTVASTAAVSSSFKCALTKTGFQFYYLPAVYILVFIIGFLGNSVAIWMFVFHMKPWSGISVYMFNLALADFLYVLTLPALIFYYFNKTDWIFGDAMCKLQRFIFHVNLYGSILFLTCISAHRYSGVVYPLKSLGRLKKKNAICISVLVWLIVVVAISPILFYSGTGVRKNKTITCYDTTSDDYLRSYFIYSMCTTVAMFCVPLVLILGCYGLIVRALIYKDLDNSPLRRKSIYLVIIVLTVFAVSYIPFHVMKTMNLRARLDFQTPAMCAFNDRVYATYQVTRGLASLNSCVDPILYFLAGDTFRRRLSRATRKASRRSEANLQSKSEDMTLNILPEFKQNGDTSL
# UniProt P47900, whole entry Y306F: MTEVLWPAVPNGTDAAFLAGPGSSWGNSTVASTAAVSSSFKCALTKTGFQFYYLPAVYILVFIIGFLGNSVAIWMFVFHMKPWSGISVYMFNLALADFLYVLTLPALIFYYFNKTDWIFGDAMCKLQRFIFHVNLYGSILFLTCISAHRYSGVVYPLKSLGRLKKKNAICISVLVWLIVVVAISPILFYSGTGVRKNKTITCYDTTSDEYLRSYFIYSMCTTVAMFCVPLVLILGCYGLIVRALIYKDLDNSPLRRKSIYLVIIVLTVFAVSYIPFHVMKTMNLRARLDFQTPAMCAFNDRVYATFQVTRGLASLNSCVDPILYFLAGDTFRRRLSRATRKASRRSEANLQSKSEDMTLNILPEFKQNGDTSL
# UniProt P47900, whole entry H277A: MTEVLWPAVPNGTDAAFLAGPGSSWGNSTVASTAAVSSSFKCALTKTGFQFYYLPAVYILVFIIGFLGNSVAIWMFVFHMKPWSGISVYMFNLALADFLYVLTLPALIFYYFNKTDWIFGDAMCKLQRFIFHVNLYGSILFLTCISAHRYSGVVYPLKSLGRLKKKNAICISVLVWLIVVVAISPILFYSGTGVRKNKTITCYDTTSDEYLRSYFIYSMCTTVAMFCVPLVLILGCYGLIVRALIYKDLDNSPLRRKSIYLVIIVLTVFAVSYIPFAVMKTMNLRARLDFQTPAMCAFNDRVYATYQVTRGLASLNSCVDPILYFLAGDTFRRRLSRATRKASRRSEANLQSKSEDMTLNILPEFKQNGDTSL
# UniProt P47900, whole entry S317A: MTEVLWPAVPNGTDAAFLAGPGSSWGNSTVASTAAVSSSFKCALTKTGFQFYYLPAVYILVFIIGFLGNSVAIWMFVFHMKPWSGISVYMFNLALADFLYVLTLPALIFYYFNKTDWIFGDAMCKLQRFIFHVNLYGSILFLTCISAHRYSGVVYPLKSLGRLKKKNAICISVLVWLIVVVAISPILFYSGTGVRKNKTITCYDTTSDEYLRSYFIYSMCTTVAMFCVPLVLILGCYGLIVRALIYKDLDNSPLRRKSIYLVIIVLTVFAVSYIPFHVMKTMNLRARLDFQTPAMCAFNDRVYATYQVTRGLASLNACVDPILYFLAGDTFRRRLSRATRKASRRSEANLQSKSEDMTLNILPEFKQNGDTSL
# UniProt P47900, whole entry Y203A: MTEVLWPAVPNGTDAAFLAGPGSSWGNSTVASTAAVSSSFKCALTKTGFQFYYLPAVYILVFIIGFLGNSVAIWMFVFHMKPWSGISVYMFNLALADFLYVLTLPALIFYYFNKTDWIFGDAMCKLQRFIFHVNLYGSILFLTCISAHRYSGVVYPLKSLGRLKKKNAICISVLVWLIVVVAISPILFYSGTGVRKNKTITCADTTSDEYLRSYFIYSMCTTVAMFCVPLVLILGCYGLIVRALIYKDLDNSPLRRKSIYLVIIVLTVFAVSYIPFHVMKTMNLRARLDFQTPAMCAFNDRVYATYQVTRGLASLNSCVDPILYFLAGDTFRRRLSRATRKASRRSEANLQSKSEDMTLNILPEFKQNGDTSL
# UniProt P47900, whole entry H132A: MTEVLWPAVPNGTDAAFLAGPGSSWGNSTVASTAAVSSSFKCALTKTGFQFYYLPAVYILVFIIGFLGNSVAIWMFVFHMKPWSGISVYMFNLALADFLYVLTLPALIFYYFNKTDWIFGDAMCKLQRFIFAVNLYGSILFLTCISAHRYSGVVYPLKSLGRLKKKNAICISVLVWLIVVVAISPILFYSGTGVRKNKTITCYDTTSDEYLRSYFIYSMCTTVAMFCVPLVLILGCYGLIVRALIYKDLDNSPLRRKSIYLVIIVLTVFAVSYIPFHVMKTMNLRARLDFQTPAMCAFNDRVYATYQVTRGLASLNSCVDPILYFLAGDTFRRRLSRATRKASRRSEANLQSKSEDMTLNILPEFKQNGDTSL
# UniProt P47900, whole entry D204A: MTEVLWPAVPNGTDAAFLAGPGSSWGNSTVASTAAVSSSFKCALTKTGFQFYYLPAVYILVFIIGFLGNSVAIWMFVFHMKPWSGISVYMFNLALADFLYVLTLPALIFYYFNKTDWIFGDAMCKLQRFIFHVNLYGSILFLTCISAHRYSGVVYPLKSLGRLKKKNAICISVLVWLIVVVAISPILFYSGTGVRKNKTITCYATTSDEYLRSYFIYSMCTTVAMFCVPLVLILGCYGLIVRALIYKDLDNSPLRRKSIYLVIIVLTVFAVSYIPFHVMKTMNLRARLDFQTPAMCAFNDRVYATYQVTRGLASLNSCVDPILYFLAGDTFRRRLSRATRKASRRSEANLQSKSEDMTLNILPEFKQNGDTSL
# UniProt P47900, whole entry Y273A: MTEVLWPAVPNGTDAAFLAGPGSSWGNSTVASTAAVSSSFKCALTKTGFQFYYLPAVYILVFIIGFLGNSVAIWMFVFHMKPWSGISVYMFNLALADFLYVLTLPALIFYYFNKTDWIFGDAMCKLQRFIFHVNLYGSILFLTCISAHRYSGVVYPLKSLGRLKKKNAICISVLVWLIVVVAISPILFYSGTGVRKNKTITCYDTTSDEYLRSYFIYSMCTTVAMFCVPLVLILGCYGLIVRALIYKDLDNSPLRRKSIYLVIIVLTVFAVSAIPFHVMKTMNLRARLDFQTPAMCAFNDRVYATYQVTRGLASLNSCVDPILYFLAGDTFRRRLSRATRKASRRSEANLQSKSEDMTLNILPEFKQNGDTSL
# UniProt P47900, whole entry R310K: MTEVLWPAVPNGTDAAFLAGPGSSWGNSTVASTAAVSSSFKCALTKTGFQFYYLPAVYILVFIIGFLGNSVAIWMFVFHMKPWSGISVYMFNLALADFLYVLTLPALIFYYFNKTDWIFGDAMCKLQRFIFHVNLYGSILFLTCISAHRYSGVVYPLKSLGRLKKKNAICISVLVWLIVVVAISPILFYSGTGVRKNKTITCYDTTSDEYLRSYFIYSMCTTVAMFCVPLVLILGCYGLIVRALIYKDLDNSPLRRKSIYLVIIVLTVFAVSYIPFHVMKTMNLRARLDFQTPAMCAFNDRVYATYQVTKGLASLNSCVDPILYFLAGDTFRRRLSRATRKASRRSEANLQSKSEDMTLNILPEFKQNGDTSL
# UniProt P47900, whole entry Y306A: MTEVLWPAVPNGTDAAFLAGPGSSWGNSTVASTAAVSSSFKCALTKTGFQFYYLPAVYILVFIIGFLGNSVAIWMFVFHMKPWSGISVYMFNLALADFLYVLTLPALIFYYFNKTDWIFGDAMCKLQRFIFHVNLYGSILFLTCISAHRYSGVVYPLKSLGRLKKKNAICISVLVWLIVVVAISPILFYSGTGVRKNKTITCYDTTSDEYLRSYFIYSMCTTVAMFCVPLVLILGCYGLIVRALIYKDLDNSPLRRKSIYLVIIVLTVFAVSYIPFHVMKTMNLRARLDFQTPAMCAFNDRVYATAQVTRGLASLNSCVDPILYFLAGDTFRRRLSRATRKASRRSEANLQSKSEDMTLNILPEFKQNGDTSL
# UniProt P47900, whole entry R287E: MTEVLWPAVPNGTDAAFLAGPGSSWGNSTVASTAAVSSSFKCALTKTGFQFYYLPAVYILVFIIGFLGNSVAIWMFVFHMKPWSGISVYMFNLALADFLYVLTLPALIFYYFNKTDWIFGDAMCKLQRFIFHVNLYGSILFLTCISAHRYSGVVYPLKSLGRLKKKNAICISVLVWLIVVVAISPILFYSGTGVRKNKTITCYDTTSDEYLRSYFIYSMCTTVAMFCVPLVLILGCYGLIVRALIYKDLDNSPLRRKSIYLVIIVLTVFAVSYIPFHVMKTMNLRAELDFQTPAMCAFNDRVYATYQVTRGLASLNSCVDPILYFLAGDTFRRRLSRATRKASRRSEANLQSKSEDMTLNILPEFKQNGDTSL
# UniProt P47900, whole entry S314T: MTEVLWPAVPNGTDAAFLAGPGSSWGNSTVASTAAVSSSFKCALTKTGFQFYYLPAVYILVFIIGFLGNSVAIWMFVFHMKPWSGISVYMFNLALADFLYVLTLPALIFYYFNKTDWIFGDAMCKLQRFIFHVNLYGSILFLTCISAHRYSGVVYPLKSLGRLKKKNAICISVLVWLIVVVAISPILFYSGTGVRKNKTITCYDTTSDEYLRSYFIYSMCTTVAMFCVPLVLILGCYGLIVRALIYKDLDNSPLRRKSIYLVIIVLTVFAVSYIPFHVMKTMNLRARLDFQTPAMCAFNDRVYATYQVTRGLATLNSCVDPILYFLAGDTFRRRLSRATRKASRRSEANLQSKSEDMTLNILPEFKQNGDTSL
# UniProt P47900, whole entry R128A: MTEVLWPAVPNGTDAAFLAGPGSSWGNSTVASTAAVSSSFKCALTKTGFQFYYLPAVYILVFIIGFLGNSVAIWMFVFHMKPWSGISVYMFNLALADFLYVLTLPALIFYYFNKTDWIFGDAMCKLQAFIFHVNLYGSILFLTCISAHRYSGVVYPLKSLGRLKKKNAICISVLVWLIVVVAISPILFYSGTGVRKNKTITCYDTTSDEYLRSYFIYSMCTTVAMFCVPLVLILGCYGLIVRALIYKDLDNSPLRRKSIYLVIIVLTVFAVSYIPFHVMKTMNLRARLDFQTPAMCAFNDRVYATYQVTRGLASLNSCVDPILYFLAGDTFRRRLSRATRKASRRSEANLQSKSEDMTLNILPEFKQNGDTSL
# UniProt P47900, whole entry D204E: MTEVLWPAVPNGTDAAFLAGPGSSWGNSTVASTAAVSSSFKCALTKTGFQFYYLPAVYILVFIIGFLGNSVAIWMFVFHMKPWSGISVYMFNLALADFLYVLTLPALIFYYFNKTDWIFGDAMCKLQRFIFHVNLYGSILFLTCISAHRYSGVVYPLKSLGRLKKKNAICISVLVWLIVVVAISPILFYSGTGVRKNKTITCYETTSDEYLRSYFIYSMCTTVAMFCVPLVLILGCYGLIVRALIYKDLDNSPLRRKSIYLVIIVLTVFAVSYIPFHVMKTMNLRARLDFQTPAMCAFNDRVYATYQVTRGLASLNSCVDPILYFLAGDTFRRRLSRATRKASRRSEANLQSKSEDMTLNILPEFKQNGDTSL
# Columns and labels:
# Assay type in all cases: cell-based
# [1] = target: P2Y purinoceptor 1 (Homo sapiens, UniProt P47900, R285A); experiment: Effective concentration required for the activation of human R285A mutant strain P2Y1 receptors expressed in COS-7 cells for the accumulation of inositol phosphate
# [2] = target: P2Y purinoceptor 1 (Homo sapiens, UniProt P47900, C296A); experiment: Effective concentration required for the activation of human C296A mutant strain P2Y1 receptors expressed in COS-7 cells for the accumulation of inositol phosphate
# [3] = target: P2Y purinoceptor 1 (Homo sapiens, UniProt P47900, T222A); experiment: Effective concentration required for the activation of human T222A mutant strain P2Y1 receptors expressed in COS-7 cells for the accumulation of inositol phosphate
# [4] = target: P2Y purinoceptor 1 (Homo sapiens, UniProt P47900, E209D); experiment: Effective concentration required for the activation of human E209D mutant strain P2Y1 receptors expressed in COS-7 cells for the accumulation of inositol phosphate
# [5] = target: P2Y purinoceptor 1 (Homo sapiens, UniProt P47900, Y306F); experiment: Effective concentration to activate human Y306F mutant strain P2Y1 receptor expressed in COS-7 cells for the accumulation of inositol phosphate
# [6] = target: P2Y purinoceptor 1 (Homo sapiens, UniProt P47900, H277A); experiment: Effective concentration required for the activation of human H277A mutant strain P2Y1 receptors expressed in COS-7 cells for the accumulation of inositol phosphate
# [7] = target: P2Y purinoceptor 1 (Homo sapiens, UniProt P47900, S317A); experiment: Effective concentration required for the activation of human S317A mutant strain P2Y1 receptors expressed in COS-7 cells for the accumulation of inositol phosphate
# [8] = target: P2Y purinoceptor 1 (Homo sapiens, UniProt P47900, Y203A); experiment: Effective concentration to activate human Y203A (EL2) mutant strain P2Y1 receptor expressed in COS-7 cells for the accumulation of inositol phosphate
# [9] = target: T1, P2Y purinoceptor 1 (Homo sapiens, UniProt P47900); experiment: Inhibition concentration required against wild type strain P2Y1 receptor expressed in COS-7 cells is determined using [3H]-MRS2279 as radioligand
# [10] = target: P2Y purinoceptor 1 (Homo sapiens, UniProt P47900, H132A); experiment: Effective concentration required for the activation of human H132A mutant strain P2Y1 receptors expressed in COS-7 cells for the accumulation of inositol phosphate
# [11] = target: P2Y purinoceptor 1 (Homo sapiens, UniProt P47900, D204A); experiment: Effective concentration required for the activation of human D204A mutant strain P2Y1 receptors expressed in COS-7 cells for the accumulation of inositol phosphate
# [12] = target: T2, P2Y purinoceptor 1 (Homo sapiens, UniProt P47900, Y273A); experiment: Effective concentration to activate human Y273A mutant strain P2Y1 receptor expressed in COS-7 cells for the accumulation of inositol phosphate
# [13] = target: P2Y purinoceptor 1 (Homo sapiens, UniProt P47900, R310K); experiment: Effective concentration required for the activation of human R310K mutant strain P2Y1 receptors expressed in COS-7 cells for the accumulation of inositol phosphate
# [14] = target: T2, P2Y purinoceptor 1; experiment: Inhibition concentration required against human Y273A mutant strain P2Y1 receptor expressed in COS-7 cells is determined using [3H]-MRS2279 as radioligand
# [15] = target: P2Y purinoceptor 1 (Homo sapiens, UniProt P47900, Y306A); experiment: Inhibition concentration required against human Y306A mutant strain P2Y1 receptor expressed in COS-7 cells is determined using [3H]MRS2279 as radioligand
# [16] = target: P2Y purinoceptor 1 (Homo sapiens, UniProt P47900, R287E); experiment: Effective concentration required for the activation of human R287E mutant strain P2Y1 receptors expressed in COS-7 cells for the accumulation of inositol phosphate
# [17] = target: P2Y purinoceptor 1 (Homo sapiens, UniProt P47900, S314T); experiment: Effective concentration required for the activation of human S314T mutant strain P2Y1 receptors expressed in COS-7 cells for the accumulation of inositol phosphate
# [18] = target: P2Y purinoceptor 1 (Homo sapiens, UniProt P47900, R128A); experiment: Effective concentration required for the activation of human R128A mutant strain P2Y1 receptors expressed in COS-7 cells for the accumulation of inositol phosphate
# [19] = target: P2Y purinoceptor 1 (Homo sapiens, UniProt P47900, D204E); experiment: Effective concentration required for the activation of human D204E mutant strain P2Y1 receptors expressed in COS-7 cells for the accumulation of inositol phosphate
# [20] = target: T1, P2Y purinoceptor 1; experiment: Effective concentration required for the activation of wild-type P2Y1 receptors expressed in COS-7 cells for the accumulation of inositol phosphate
# [21] = target: T1, P2Y purinoceptor 1; experiment: Effective concentration required for the activation of wild-type P2Y1 receptors expressed in COS-7 cells for the accumulation of inositol phosphate is determined in separate experiment
# [22] = target: P2Y purinoceptor 1 (Homo sapiens, UniProt P47900, R212A); experiment: Effective concentration required for the activation of human R212A mutant strain P2Y1 receptors expressed in COS-7 cells for the accumulation of inositol phosphate
# [23] = target: P2Y purinoceptor 1 (Homo sapiens, UniProt P47900, D289A); experiment: Effective concentration required for the activation of human D289A mutant strain P2Y1 receptors expressed in COS-7 cells for the accumulation of inositol phosphate
# [24] = target: P2Y purinoceptor 1 (Homo sapiens, UniProt P47900, K125A); experiment: Effective concentration required for the activation of human K125A mutant strain P2Y1 receptors expressed in COS-7 cells for the accumulation of inositol phosphate
# [25] = target: P2Y purinoceptor 1 (Homo sapiens, UniProt P47900, R287Q); experiment: Effective concentration required for the activation of human R287Q mutant strain P2Y1 receptors expressed in COS-7 cells for the accumulation of inositol phosphate
# [26] = target: P2Y purinoceptor 1 (Homo sapiens, UniProt P47900, R287A); experiment: Effective concentration required for the activation of human R287A mutant strain P2Y1 receptors expressed in COS-7 cells for the accumulation of inositol phosphate
# [27] = target: P2Y purinoceptor 1 (Homo sapiens, UniProt P47900, R195A); experiment: Effective concentration required for the activation of human R195A mutant strain P2Y1 receptors expressed in COS-7 cells for the accumulation of inositol phosphate
compound,measurement,setting,value
CSc1nc(N)c2ncn([C@@H]3O[C@H](COP(=O)(O)OP(=O)(O)O)[C@@H](O)[C@H]3O)c2n1,EC50,[1],9.2 nM
same,EC50,[2],5160 nM
same,EC50,[3],11.2 nM
same,EC50,[4],3.2 nM
same,EC50,[5],19 nM
same,EC50,[6],100 nM
same,EC50,[7],1.58 nM
same,EC50,[8],> 10000 nM
same,IC50,[9],24 nM
same,EC50,[10],15.9 nM
same,EC50,[11],66.5 nM
same,EC50,[12],> 10000 nM
same,EC50,[13],418 nM
same,IC50,[14],22 nM
same,IC50,[15],150 nM
same,EC50,[16],> 100000 nM
same,EC50,[17],11.7 nM
same,EC50,[18],> 100000 nM
same,EC50,[19],145 nM
same,EC50,[20],1.27 nM
same,EC50,[21],2.2 nM
same,EC50,[22],7.8 nM
same,EC50,[23],3.9 nM
same,EC50,[24],5.9 nM
same,EC50,[25],5290 nM
same,EC50,[26],14800 nM
same,EC50,[27],4.7 nM
